Test results taken from ChEMBL document CHEMBL2424615, “Design, synthesis, and characterization of novel tetrahydropyran-based bacterial topoisomerase inhibitors with potent anti-gram-positive activity” (J Med Chem, 2013).

Assay: Inhibition of wild type Escherichia coli ATCC 25922 DNA topoisomerase-4 subunit 2ParC/2ParE assessed as pBR322 relaxation after 1 hr

SMILES: O=C(O)c1cn(C2CC2)c2cc(N3CCNCC3)c(F)cc2c1=O [CIPROFLOXACIN]
- IC50: 8 µM
